Screening data deposited in PubChem by Broad Institute.
AF4-AF9 inh: inhibitors of human MLL-AF4/AF9 interaction | P42568 | AlphaScreen, biotin-AF4 peptide binding to FLAG-AF9 | inhibition, % at 10 µM | 0.47% of 350,000 active | AID 651704;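 active = every replicate reaching a set inhibition limit, whatever the replicate mean, cut at about 25% in these data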;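 also: 0% = plate neutral control median and 100% = total signal loss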
Yeast UUG start: alters start codon recognition fidelity in yeast. S. cerevisiae UUG-firefly luciferase reporter, luminescence/redox ratio. 350,000 tested, 0.13% active. activity score, % at 18.7 µM. AID 602363;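 active means replicate mean at a twofold rise or more, about +100% in these data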;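 further: firefly luciferase made from a UUG start codon reports start codon fidelity; reporter light over untreated wells divided by growth signal over untreated wells; some hits fall short of that in this replicate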
RAD52 inh: RAD52 (human) annealing inhibition | P43351 | recombinant RAD52 DNA annealing, FRET fluorescence | inhibition, % at 18.7 µM | 0.46% of 360,000 active | AID 651710;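 active = every replicate showing at least 50% inhibition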
SIRT5 inh: sirtuin-5 (human) deacylase inhibition; 1.1% of 330,000 active; inhibition, % at 15 µM; Purified SirT5, succinyl-peptide AMC, trypsin-coupled fluorescence; Q9NXA8; in the data active = inhibition above about 15%
RAD54 branch: RAD54 (human) branch migration inhibition | Q92698 | RAD54 Holliday junction branch migration, FAM/BHQ fluorescence | inhibition, % at 10.4 µM | 0.14% of 360,000 active;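 active = mean normalized replicate activity at least 40 and at least half of replicates scoring 40 or more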;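 also: 0% = median of neutral control wells and 100% = median of positive control wells; inhibitors cause a drop in the FAM fluorescence signal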
E-selectin induc: E-selectin induction on HUVECs; P16581; HUVEC E-selectin immunofluorescence imaging; normalized: neutral wells 0, TNF-alpha wells 100; activation, % at 7.58 µM; 0.37% of 260,000 active; AID 686992;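 active = mean E-selectin-positive cell signal at least 10% of the positive control, reached in at least 60% of replicates, without over 20% cell loss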
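Read-out basis: % PE-positive cells; Test system: HUVEC primary endothelial cells; Technique: immunofluorescence imaging; Dosing: single-point compound dose.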
* = called active by the depositor; · = not tested or not shown; ! = not confirmed by another sample. Hits are enriched below; roughly 1.8% of the tested compounds scored in any of these assays.

Each structure is followed by: AF4-AF9 inh | Yeast UUG start | RAD52 inh | SIRT5 inh | RAD54 branch | E-selectin induc
[1] CN(C)CC(=O)Nc1ccc2c(c1)[C@@H]1C[C@H](CC(=O)NCc3cc(F)ccc3F)O[C@@H](CO)[C@@H]1O2
  -1 | · | 13 | 1 | 11 | 0
[2] CC(C)CN1C(=O)C(NC(=O)C2CC2)(C(F)(F)F)C2=C1CC(C)(C)CC2=O (stereo unspecified)
  -5 | -4 | -14 | 36* | 4 | ·
[3] CCCNC(=O)C[C@@H]1C[C@@H]2c3cc(NS(=O)(=O)c4cccc(OC)c4)ccc3O[C@@H]2[C@@H](CO)O1
  -2 | -4 | 0 | -2 | -4 | 0
[4] COc1cccc(NC(=O)N2C[C@H](O)COC[C@@H]3O[C@@H](CC(=O)NC4CCC4)CC[C@H]32)c1
  -9 | · | 8 | 5 | 4 | 0
[5] COc1ccccc1S(=O)(=O)N1CCN(S(=O)(=O)c2ccccc2C#N)CC1
  -1 | -16 | 14 | 91* | -6 | ·
[6] O=C(Nc1cccc(F)c1)N1C[C@@H]2N[C@H](C1)C2c1ccc(-c2ccc(F)cc2)cc1 (stereo partly specified)
  1 | · | 51* | 11 | · | 0
[7] Cc1cccc(-c2ccc(C3[C@@H]4CN(C(=O)Nc5ccc(F)cc5)C[C@H]3N4)cc2)c1 (stereo partly specified)
  3 | · | 60*! | 9 | · | 0
[8] O=C(Nc1ccc(F)cc1)N1C[C@@H]2N[C@H](C1)C2c1ccc(-c2ccccc2F)cc1 (stereo partly specified)
  3 | · | 55*! | 10 | · | 0
[9] COc1ccc2c3c([nH]c2c1)[C@H](CO)N(Cc1ccc(Cl)cc1)CC31CCN(Cc2ccccc2)CC1
  2 | · | 40 | · | · | 0
[10] C[C@@H]1CN([C@@H](C)CO)C(=O)c2cc(NC(=O)Cc3cn(C)c4ccccc34)ccc2O[C@H]1CN(C)Cc1ccc(C(=O)Nc2ccccc2N)cc1
  -4 | 6 | 33 | 17* | 3 | 1
[11] C[C@@H]1CN([C@@H](C)CO)C(=O)c2cc(NC(=O)Cc3cn(C)c4ccccc34)ccc2O[C@@H]1CN(C)Cc1ccc(C(=O)Nc2ccccc2N)cc1
  -2 | 7 | 36 | · | 5 | 2
[12] C[C@H](CO)N1C[C@H](C)[C@H](CN(C)Cc2ccc(C(=O)Nc3ccccc3N)cc2)Oc2ccc(NC(=O)Cc3cn(C)c4ccccc34)cc2C1=O
  -1 | 11 | 18 | 23* | 9 | ·
[13] CN(C)CCCNC(=O)[C@H]1[C@H](CO)[C@H]2Cn3c(ccc(-c4cccnc4)c3=O)[C@@H]1N2C(=O)CC1CC1
  -4 | · | 9 | -27 | -4 | 0
[14] CCCNC(=O)N1C[C@H](C)[C@@H](OC)CN(C)C(=O)c2cc(NC(=O)CCC)ccc2OC[C@H]1C
  -1 | · | 4 | 1 | 2 | 0
[15] O=C(NCC[C@@H]1CC[C@@H](NC(=O)C2CC2)[C@H](CO)O1)Nc1ccc(Cl)cc1
  16 | -6 | 16 | 4 | -4 | 0
[16] CCCNC(=O)N(C)C[C@H]1Oc2cc(C#CC(C)C)ccc2S(=O)(=O)N([C@H](C)CO)C[C@H]1C
  -1 | 29 | 16 | 2 | -13 | 0
[17] CCCNC(=O)N(C)C[C@H]1Oc2cc(C#C[C@H](C)O)ccc2S(=O)(=O)N([C@@H](C)CO)C[C@@H]1C
  -4 | 0 | -2 | 18* | 3 | 0
[18] CCCNC(=O)N(C)C[C@H]1Oc2cc(C#CC(C)C)ccc2S(=O)(=O)N([C@H](C)CO)C[C@@H]1C
  -3 | 3 | 9 | 19* | -5 | 0
[19] CN1C(=O)c2cc(NC(=O)c3ccccc3F)ccc2OC[C@@H]2O[C@H](CC(=O)NCc3ccc4c(c3)OCO4)CC[C@H]21
  0 | · | -5 | -3 | -4 | 0
[20] O=C1C=CC(=O)N1Cc1ccccn1
  -6 | -10 | -57 | 21* | 7 | -2
[21] O=C1c2ccccc2C(=O)N1Cc1ccccn1
  1 | · | -5 | -6 | · | ·
[22] COc1ccc(CNC(=O)C(OC(=O)c2nsc(Cl)c2Cl)C(C)C)cc1 (stereo unspecified)
  -4 | 0 | -3 | 4 | 3 | -5
[23] CC(C)C(OC(=O)c1nsc(Cl)c1Cl)C(=O)NCc1ccccc1 (stereo unspecified)
  0 | -26 | -12 | -3 | -1 | 32*
[24] CO[C@@H]1CN(C)C(=O)c2cc(NC(=O)NC3CCCCC3)ccc2OC[C@H](C)NC[C@@H]1C
  1 | 35 | 1 | 1 | -7 | 0
[25] Cc1noc(C)c1S(=O)(=O)Nc1ccc2c(c1)CC(=O)N([C@@H](C)CO)C[C@@H](C)[C@H](CN(C)S(=O)(=O)c1ccccc1)O2
  -3 | 10 | 2 | 5 | -3 | 0
[26] COc1ccc(C(=O)N/N=C/c2ccc(OC)c(COc3ccccc3)c2)cc1
  -1 | -15 | 1 | 2 | -4 | 0
[27] COc1ccc(/C=N\NC(=O)c2cc(O)c(O)c(O)c2)cc1COc1ccc(C(=O)OCC(C)C)cc1
  54* | -4 | -14 | -2 | 1 | 0
[28] C[C@H]1CN([C@@H](C)CO)S(=O)(=O)c2ccc(C#CC3CC3)cc2O[C@H]1CN(C)C(=O)Nc1cc(F)ccc1F
  · | · | · | · | · | -1
[29] Cc1nc(NC(=O)C2CC2)sc1C
  5 | -11 | -17 | 22* | 2 | ·
[30] COc1ccc(C(=O)Nc2ccc3c(c2)C(=O)N(C)C[C@@H](OC)[C@@H](C)CN[C@@H](C)CO3)cc1
  -1 | 0 | -5 | -3 | -2 | 0

RAD52 inh, entries above that show a hit
no.	molecule	AF4-AF9 inh	Yeast UUG start	RAD52 inh	SIRT5 inh
6	O=C(Nc1cccc(F)c1)N1C[C@@H]2N[C@H](C1)C2c1ccc(-c2ccc(F)cc2)cc1 (stereo partly specified)	1	·	51*	11
7	Cc1cccc(-c2ccc(C3[C@@H]4CN(C(=O)Nc5ccc(F)cc5)C[C@H]3N4)cc2)c1 (stereo partly specified)	3	·	60*!	9
8	O=C(Nc1ccc(F)cc1)N1C[C@@H]2N[C@H](C1)C2c1ccc(-c2ccccc2F)cc1 (stereo partly specified)	3	·	55*!	10

Next section
Each structure is followed by: AF4-AF9 inh | Yeast UUG start | RAD52 inh | SIRT5 inh | RAD54 branch | E-selectin induc
[31] C[C@H]1CN([C@@H](C)CO)S(=O)(=O)c2ccc(/C=C/c3ccccc3)cc2O[C@H]1CN(C)C(=O)c1ccc2c(c1)OCO2
  6 | -18 | 21 | 22* | -10 | 0
[32] C[C@@H]1CN([C@@H](C)CO)S(=O)(=O)c2ccc(-c3ccccc3)cc2O[C@@H]1CN(C)C(=O)c1ccc2c(c1)OCO2
  -7 | · | 5 | 16* | -5 | 0
[33] C[C@H](CO)N1C[C@H](C)[C@H](CN(C)C(=O)c2ccc3c(c2)OCO3)Oc2cc(/C=C/c3ccccc3)ccc2S1(=O)=O
  3 | -11 | 19 | 29* | 11 | 0
[34] C[C@H]1CN([C@@H](C)CO)S(=O)(=O)c2ccc(/C=C/c3ccccc3)cc2O[C@@H]1CN(C)C(=O)c1ccc2c(c1)OCO2
  6 | -3 | -4 | 2 | 11 | 0
[35] CCOC(=O)N1CCN(C2=C(NS(=O)(=O)c3ccc(C)cc3)C(=O)c3ccccc3C2=O)CC1
  1 | -3 | -25 | 14 | 3 | ·
[36] Cc1ccc(S(=O)(=O)NC2=C(N3CCN(c4ccccc4F)CC3)C(=O)c3ccccc3C2=O)cc1
  35* | -12 | -9 | · | 4 | 0
[37] COC(=O)C1CCN(C2=C(NS(=O)(=O)c3ccc(Cl)cc3)C(=O)c3ccccc3C2=O)CC1
  39* | -13 | -3 | · | -5 | 0
[38] Cc1ccc(S(=O)(=O)NC2=C(N3CCN(Cc4ccccc4)CC3)C(=O)c3ccccc3C2=O)cc1
  35* | 13 | -6 | · | 4 | 0
